The source of these data is PMC11436948 (Nature Communications, 2024).

The chains are these.
T1: γ subunit of the E. coli clamp loader complex (E. coli, UniProt P06710-2 1-431)
T1 sequence: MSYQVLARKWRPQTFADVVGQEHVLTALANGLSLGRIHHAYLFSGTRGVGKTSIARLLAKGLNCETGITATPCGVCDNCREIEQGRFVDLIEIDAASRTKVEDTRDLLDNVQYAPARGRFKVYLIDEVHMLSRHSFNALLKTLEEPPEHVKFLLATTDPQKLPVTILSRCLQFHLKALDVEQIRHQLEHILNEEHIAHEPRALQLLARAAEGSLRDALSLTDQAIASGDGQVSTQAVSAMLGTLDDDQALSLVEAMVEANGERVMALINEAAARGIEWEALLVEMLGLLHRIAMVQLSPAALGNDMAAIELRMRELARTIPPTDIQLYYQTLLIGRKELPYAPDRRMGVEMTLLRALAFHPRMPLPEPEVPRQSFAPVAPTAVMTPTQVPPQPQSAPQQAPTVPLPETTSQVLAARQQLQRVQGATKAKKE

B1: δ’ subunit of the E. coli clamp loader complex (natural protein)
chain: MRWYPWLRPDFEKLVASYQAGRGHHALLIQALPGMGDDALIYALSRYLLCQQPQGHKSCGHCRGCQLMQAGTHPDYYTLAPEKGKNTLGVDAVREVTEKLNEHARLGGAKVVWVTDAALLTDAAANALLKTLEEPPAETWFFLATREPERLLATLRSRCRLHYLAPPPEQYAVTWLSREVTMSQDALLAALRLSAGSPGAALALFQGDNWQARETLCQALAYSVPSGDWYSLLAALNHEQAPARLHWLATLLMDALKRHHGAAQVTNVDVPGLVAELANHLSPSRLQAILGDVCHIREQLMSVTGINRELLITDLLLRIEHYLQPGVVLPVPHL
B2: τ subunit of the E. coli clamp loader complex (natural protein)
chain: MSYQVLARKWRPQTFADVVGQEHVLTALANGLSLGRIHHAYLFSGTRGVGKTSIARLLAKGLNCETGITATPCGVCDNCREIEQGRFVDLIEIDAASRTKVEDTRDLLDNVQYAPARGRFKVYLIDEVHMLSRHSFNALLKTLEEPPEHVKFLLATTDPQKLPVTILSRCLQFHLKALDVEQIRHQLEHILNEEHIAHEPRALQLLARAAEGSLRDALSLTDQAIASGDGQVSTQAVSAMLGTLDDDQALSLVEAMVEANGERVMALINEAAARGIEWEALLVEMLGLLHRIAMVQLSPAALGNDMAAIELRMRELARTIPPTDIQLYYQTLLIGRKELPYAPDRRMGVEMTLLRALAFHPRMPLPEPEVPRQSFAPVAPTAVMTPTQVPPQPQSAPQQAPTVPLPETTSQVLAARQQLQRVQGATKAKKSEPAAATRARPVNNAALERLASVTDRVQARPVPSALEKAPAKKEAYRWKATTPVMQQKEVVATPKALKKALEHEKTPELAAKLAAEAIERDPWAAQVSQLSLPKLVEQVALNAWKEESDNAVCLHLRSSQRHLNNRGAQQKLAEALSMLKGSTVELTIVEDDNPAVRTPLEWRQAIYEEKLAQARESIIADNNIQTLRRFFDAELDEESIRPI
B3: E. coli β2 sliding clamp (natural protein)
chain: MKFTVEREHLLKPLQQVSGPLGGRPTLPILGNLLLQVADGTLSLTGTDLEMEMVARVALVQPHEPGATTVPARKFFDICRGLPEGAEIAVQLEGERMLVRSGRSRFSLSTLPAADFPNLDDWQSEVEFTLPQATMKRLIEATQFSMAHQDVRYYLNGMLFETEGEELRTVATDGHRLAVCSMPIGQSLPSHSVIVPRKGVIELMRMLDGGDNPLRVQIGSNNIRAHVGDFIFTSKLVDGRFPDYRRVLPKNPDKHLEAGCDLLKQAFARAAILSNEKFRGVRLYVSENQLKITANNPEQEEAEEILDVTYSGAEMEIGFNVSYVLDVLNALKCENVRMMLTDSVSSVQIEDAASQSAAYVVMPMRL
B4: δ subunit of the E. coli clamp loader complex (natural protein)
chain: MIRLYPEQLRAQLNEGLRAAYLLLGNDPLLLQESQDAVRQVAAAQGFEEHHTFSIDPNTDWNAIFSLCQAMSLFASRQTLLLLLPENGPNAAINEQLLTLTGLLHDDLLLIVRGNKLSKAQENAAWFTALANRSVQVTCQTPEQAQLPRWVAARAKQLNLELDDAANQVLCYCYEGNLLALAQALERLSLLWPDGKLTLPRVEQAVNDAAHFTPFHWVDALLMGKSKRALHILQQLRLEGSEPVILLRTLQRELLLLVNLKRQSAHTPLRALFDKHRVWQNRRGMMGEALNRLSQTQLRQAVQLLTRTELTLKQDYGQSVWAELEGLSLLLCHKPLADVFIDG

What all share (assay): cryo-EM structure
The target of series [1] is B2.
The target in series [2] is B3.
In series [3] the target is T1, γ subunit of the E. coli clamp loader ….
Series [4] concerns the molecule itself.

Take B1: the binding result in series [1], in series [2] and in series [3] was “binds” each time.
Turning to B2, the binding result in series [4] is “binds”.
Turning to B3, the binding result in series [1] and in series [3] was “binds” throughout.
In the case of B4, the binding result in series [3] is listed as “binds”.
